This note sets out measurements from patent US20230075368A1, “IDENTIFICATION OF AN EGFR-BIN3 PATHWAY THAT ACTIVELY SUPPRESSES INVASION AND REDUCES TUMOR SIZE IN GLIOBLASTOMA” (The United States Govemment as represented by the …, priority 2020, published 2023).

What all share (type): cell-based, human
In test [1] the test system is Mayo PDX cells. The experiment in a line: Matrigel invasion assay. As for the experimental part: Invasion status of cells was tested with Matrigel Boyden chamber assays (Fisher). 1×10^5 cells were plated on BD BioCoat Matrigel invasion chambers. 24 hours after treatment with drugs, invaded cells were stained with the HEMA-3 kit (Fisher). Invaded cells were counted in 4-5 random fields.
An equal number of cells (5×10^4) were seeded on Matrigel coated inserts, and were untreated (control vehicle) or stimulated with 50 ng/ml EGF for 24 hours, cells invading to the other side of the membrane were counted and presented as percentage cell invasion. […] A similar invasion assay was conducted on GBM26 cells (FIG. 2D). […] Cells were transfected with EGFR or scrambled siRNA for 48 hours before the invasion assay. A similar invasion assay was performed on GBM6 (FIG. 2G). […] Cells were transiently transfected with empty or EGFR wildtype (EGFRwt) overexpressing vector, and invasion assay was performed after 48 hours after transfection. Overexpression of EGFR in GBM12 and GBM14 was confirmed by Western blotting (FIG. 2J). […] Cells were treated with or without 50 ng/ml EGF for 48 hours before the assay. The Western blot images are representative of three independent biological replicates. Actin served as loading control. Data are represented as mean±SEM from three independent experiments. *P<0.05, **P<0.01, n.s. not significant, unpaired two-tailed Student's t-test. […]

Test [2] has as its system BIN3. The experiment in a line: BIN3 expression by Western blot / real-time PCR. The note with it: cetuximab with tofacitinib, 24 hours; GBM12, GBM6. How it is done: Whole protein extracts from cells or tumor tissues were analyzed by western blot as previously described (Altieri et al. (2015) Surg. Technol. Int 27: 297-302). Mayo PDX cells were serum starved overnight. Following treatment for specific time, cells were harvested and lysed. The human glioblastoma tissues were ground in liquid nitrogen and then were lysed. EGFR (06-847) antibody was from Millipore. DOCK7 was from Proteintech (Rosemont, Ill.). pEGFR (2236), STAT3 (12640), pSTAT3 (9145), cdc42(4376), and RhoA (4695) antibodies were from Cell Signaling Technology (Danvers, Mass.). TGFα antibody was from R&D system. BIN3 (sc-514396) and (3-Actin (sc-47778) were from Santa Cruz Biotechnology (Dallas, Tex.).
Total RNA from cells was extracted by TRIzol Reagent (Ambion). First-strand cDNA and PCR was performed as described previously (Altieri et al. (2015) Surg. Technol. Int. 27: 297-302). The expression of each gene was normalized to GAPDH as a reference. […]
Referring to FIG. 7A-0, EGF-mediated BIN3 upregulation inhibits invasiveness. […] BIN3 mRNA levels in EGF-treated PDXs were determined by real-time PCR (FIG. 7B). […] Referring to FIG. 7F, knockdown efficiency of BIN3 siRNA was analyzed by Western blotting. […] EGR1 mRNA levels in GBM12 and GBM6 after EGF treatment were determined by real-time PCR (RT-PCR) (FIG. 7I). […] Knockdown efficiency of EGR-1 siRNA was analyzed by Western blotting (FIG. 7O). […]

For test [3], the system named is EGFR. The experiment in a line: Western blot of pEGFR and EGFR. From the text:
Mayo PDX cells were serum starved overnight. Following treatment for specific time, cells were harvested and lysed. The human glioblastoma tissues were ground in liquid nitrogen and then were lysed. […] TGFα antibody was from R&D system.
For orientation: In western blotting, separated proteins are transferred to a membrane and probed.

For cetuximab: blocks EGFR ligand binding, the cell invasion entry in test [1] (Cetuximab 100 μg/ml, 24 hours, GBM12) is reported as “unaffected”. Further, the “tofacitinib-induced suppression of invasion” value in test [1] (cetuximab with tofacitinib, GBM6 and GBM12) is listed as “completely inhibits”. The “tofacitinib-induced BIN3 upregulation” value in test [2] is “completely inhibits”. Also, the “EGF-induced tyrosine phosphorylation of the EGFR” value in test [3] (GBM12, EGF 50 ng/ml) is reported as “completely blocks”. Further, the “tofacitinib-induced EGFR activation” value in test [3] (cetuximab with tofacitinib, 24 hours, GBM12, GBM6) is recorded as “completely inhibits”.
